{
  "sequences": {"note": "Protein sequences, listed by entry. Tags and fused reporters are not part of them.", "UniProt P19020, whole entry": "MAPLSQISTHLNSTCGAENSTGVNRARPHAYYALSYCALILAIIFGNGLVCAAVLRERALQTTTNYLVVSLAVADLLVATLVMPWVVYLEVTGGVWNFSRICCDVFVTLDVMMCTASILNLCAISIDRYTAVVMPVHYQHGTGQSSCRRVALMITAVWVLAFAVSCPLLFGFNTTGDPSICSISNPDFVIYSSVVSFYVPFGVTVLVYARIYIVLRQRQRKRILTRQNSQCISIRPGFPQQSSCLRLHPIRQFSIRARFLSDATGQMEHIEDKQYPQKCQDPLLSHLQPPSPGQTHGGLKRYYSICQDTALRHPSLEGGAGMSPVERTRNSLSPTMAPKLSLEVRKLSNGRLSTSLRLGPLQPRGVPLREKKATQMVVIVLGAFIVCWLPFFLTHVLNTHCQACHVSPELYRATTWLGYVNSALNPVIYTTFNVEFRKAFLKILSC"},
  "source": "paper PMC3386472",
  "about": "(Journal of Medicinal Chemistry, 2012)",
  "molecular_target": "rat D3 receptor (Rattus norvegicus, UniProt P19020)",
  "settings": "binding selectivity, ratio Ki rD2L / Ki rD3",
  "data": [
    {"smiles": "CCCN(CCC)C1CCc2c(O)cccc2C1", "note": "(single isomer, unassigned; (-)) [(−)-5-OH-DPAT, 5-hydroxy-2-(dipropylamino)tetralin]", "values": [
      {"measurement": "D2L/D3", "result": 43.2}
    ]}
  ]
}
